Test results: patent US8143288B2, “Inhibitors of HCV replication” (priority 2005, dated 2012)

How the values were obtained:
[1] = test system: HCV 1b-377-neo replicon cells; test: HCV replicon FRET assay; type: cell-based; settings: 72 hours
Description: The HCV replicon cell line was isolated from colonies as described by Lohman, et. al. (Science 1999, 285, 110-113, expressly incorporated by reference in its entirety) and used for all experiments. The HCV replicon has the nucleic acid sequence set forth in EMBL Accession No.: AJ242652, the coding sequence of which is from nt 1801 to 7758.
The coding sequence of the published HCV replicon was synthesized by Operon Technologies, Inc. (Alameda, Calif.), and the fall-length replicon was then assembled in plasmid pGem9zf(+) (Promega, Madison, Wis.) using standard molecular biology techniques. […]
To perform the HCV FRET screening assay, 96-well cell culture plates were used. The FRET peptide (Anaspec, Inc., San Jose, Calif.) (Taliani et al., Anal. Biochem. 1996, 240, 60-67, hereby incorporated by reference in its entirety) contains a fluorescence donor, EDANS, near one end of the peptide and an acceptor, DABCYL, near the other end. The fluorescence of the peptide is quenched by […] resonance energy transfer (RET) between the donor and the acceptor, but as the NS3 protease cleaves the peptide the products are released from RET quenching and the fluorescence of the donor becomes apparent. […]

HCV replicon = test: Combination studies in HCV replicon system (FRET, method of Chou); type: cell-based
Experimental: Since clinical drug resistance often develops in viral infections following single-agent therapies, there is a need to assess the additive, antagonistic, or synergistic properties of combination therapies. […] Drugs were tested at eleven concentrations each, diluted in DMSO by 3-fold dilutions. The highest concentration used for the four HCV inhibitors was 0.1 μM for Example 3 and 20 μM for the three other HCV antivirals. […] The drugs were tested as monotherapies and in combination with Example 3 at various concentration ratios. Cells were exposed to compounds for 72 hours and the amount of HCV inhibition was then determined using the FRET assay. The potential cytotoxicities of these combined agents were also analyzed in parallel by Alamar blue staining. The degree of antagonism or synergy was determined over a range of drug concentrations, and the combination response curves were fit to assess the antiviral effects of the drug treatment combinations. The concentration ratios were analyzed using the method of Chou. Table 5 reports the combination indices (CI) and the asymptotic confidence intervals at the different concentration ratios. All combination indices were tested for departure from additivity using isobologram methods.

[2] = combined with Example 3, molar ratio 1:1
[3] = combined with Example 3, molar ratio 2.5:1

Substance: Intron A: Intron A, tested in combination with Example 3; highest concentration 5,000 IU/mL
- EC50 in monotherapy [1]: 2 U/mL
- CI at HCV inhibition of: 75% (HCV replicon; [2]): 0.88 +/− 0.15
- CI at HCV inhibition of: 90% (HCV replicon; [2]): 0.72 +/− 0.20
- CI at HCV inhibition of: 95% (HCV replicon; [2]): 0.64 +/− 0.22
- Overall Result (HCV replicon; [2]): Additive/Synergistic
- CI at HCV inhibition of: 50% (HCV replicon; combined with Example 3, molar ratio 1:1 (first number Example 3)): 1.09 +/− 0.13
- CI at HCV inhibition of: 75% (HCV replicon; [3]): 0.82 +/− 0.16
- CI at HCV inhibition of: 90% (HCV replicon; [3]): 0.71 +/− 0.22
- CI at HCV inhibition of: 95% (HCV replicon; [3]): 0.66 +/− 0.26
- Overall Result (HCV replicon; [3]): Additive/Synergistic
- CI at HCV inhibition of: 50% (HCV replicon; combined with Example 3, molar ratio 2.5:1 (first number Example 3)): 0.99 +/− 0.13
- combination response (HCV replicon; in combination with Example 3, replicon cells, 72 hours): additivity at both the 50 and 75% effective levels
